Source: patent publication US20030180179A1, “Chemical and biological decontamination material and system” (published 2003)

System: Bacillus subtilis (ATCC #6461)

silver nitrate
ZOI (CM): 3.7 CM
